Values quoted from earlier work in patent US10365286B2, “Chromophoric structures for lanthanide chelates” (RADIOMETER TURKU OY, priority 2014, dated 2019).

Conditions: room temperature; cited from earlier work

Question: For “europium chelate of 4-(2-(7-hexyloxy-9,9′-dihexylfluorenyl)ethynyl)-2,6-bis(diethylcarbamoyl)pyridine.[OTf]3”, which emission is on record?
Answer: no significant emission
